The target in assay [1] is T1, PLK1 fluorescein tracer phosphopeptide (also: fluorescein label, place not given here).
T1 chain: MAGPMQS[pT]PLNGAKK
Description: fluorescence polarization. In general terms: In fluorescence polarisation assays a small probe gives low polarisation when free and higher when bound to something large.

The target in a further assay is T2, FLIP 17.
T2 chain: {4‑methylaminobenzoyl}-S[pT]PNGL
In words: fluorescence polarization competition.

The target in another assay is T3, FLIP 15.
T3 chain: {4‑phenethoxybenzoyl}-S[pT]PNGL
In words: fluorescence polarization competition.

In a further assay the target is T4, FLIP 18.
T4 chain: {4‑propylaminobenzoyl}-S[pT]PNGL
In words: fluorescence polarization competition.

The next assay deals with T5, PLK3 consensus peptide 7.
T5 chain: GPLATS[pT]PKNG
Description: fluorescence polarization competition.

In a further assay the target is T6, FLIP 16.
T6 chain: {4‑thiomethylbenzoyl}-S[pT]PNGL
In words: fluorescence polarization competition.

Another assay has as its target T7, FLIP 11.
T7 chain: {4‑methoxybenzoyl}-S[pT]PNGL
In words: fluorescence polarization competition.

The target in another assay is T8, chimeric peptide 8.
T8 chain: GPLATS[pT]PNGL
In words: fluorescence polarization competition.

A further assay addresses T9, FLIP 21.
T9 chain: {Benzoyl(4-octyl)}-S[pT]PNGL
Description: fluorescence polarization competition.

The target of a further assay is T10, chimeric peptide 3.
T10 chain: Ac-PLHS[pT]PNGL
In words: fluorescence polarization competition.

For another assay, the target named is T11, PBIP phosphopeptide 4 (Homo sapiens).
T11 chain: Ac-PLHS[pT]AI
In words: fluorescence polarization competition.

The next assay has as its target T12, FLIP 12.
T12 chain: {4‑ethoxybenzoyl}-S[pT]PNGL
In words: fluorescence polarization competition.

Another assay deals with T13, FLIP 19.
T13 chain: {4‑butylbenzoyl}-S[pT]PNGL
Description: fluorescence polarization competition.

A further assay has as its target T14, PBIP phosphopeptide 5 (Homo sapiens).
T14 chain: Ac-LHS[pT]AI
In words: fluorescence polarization competition.

The target in a further assay is T15, FLIP 14.
T15 chain: {4‑fluorobenzyloxybenzoyl}-S[pT]PNGL
In words: fluorescence polarization competition.

The target of a further assay is T16, FLIP 20.
T16 chain: {4‑hexylbenzoyl}-S[pT]PNGL
Description: fluorescence polarization competition.

For the next assay, the target named is T17, PBIP phosphopeptide 6 (Homo sapiens).
T17 chain: Ac-PLHS[pT]A
Description: fluorescence polarization competition.

For a further assay, the target named is T18, Cdc25C phosphopeptide 1 (Homo sapiens).
T18 chain: LLCS[pT]PNGL
In words: fluorescence polarization competition.

The target in a further assay is T19, chimeric peptide 9.
T19 chain: Ac-PLHS[pT]PKNG
In words: fluorescence polarization competition.

Non-standard residues stand in square brackets, D forms with d. No end group written: not given here. *: point of attachment. Benzoyl(4-octyl) = CCCCCCCCc1ccc(C(=O)*)cc1; pT = C[C@@H](OP(=O)(O)O)[C@H](N)C(=O)O

One may read the Kd as the free concentration of one partner at which half of the binding sites on the other are occupied at equilibrium, for simple one-to-one binding. Read a low Kd as higher affinity. By IC50 is commonly meant the concentration at which inhibition is half-maximal. High values mean lower potency, low ones higher potency.

B1: PLK1 PBD 367-603 (protein)
chain: GEVVDCHLSDMLQQLHSVNASKPSERGLVRQEEAEDPACIPIFWVSKWVDYSDKYGLGYQLCDNSVGVLFNDSTRLILYNDGDSLQYIERDGTESYLTVSSHPNSLMKKITLLKYFRNYMSEHLLKAGANITPREGDELARLPYLRTWFRTRSAIILHLSNGSVQINFFQDHTKLILCPLMAAVTYIDEKRDFRTYRLSLLEEYGCCKELASRLRYARTMVDKLLSSRSASNRLKAS
In assay [1], B1 yielded a Kd of 0.0046 µM. Moreover, the IC50 with FLIP 17 was determined as 11.2 µM; with FLIP 15 it was 4.5 µM; in the assay with FLIP 18, 5.4 µM; with PLK3 consensus peptide 7, 0.0057 µM; with FLIP 16, 3 µM; with FLIP 11, 21.9 µM. Besides, the IC50 stood at 0.011 µM with chimeric peptide 8; 0.36 µM with FLIP 21; 0.06 µM with chimeric peptide 3; 0.064 µM with PBIP phosphopeptide 4; 15.9 µM with FLIP 12; 2.5 µM with FLIP 19. Also, the IC50 with PBIP phosphopeptide 5 is 1.57 µM; in the assay with FLIP 14, 5 µM; in the assay with FLIP 20 it was 1 µM; with PBIP phosphopeptide 6, 0.46 µM; in the assay with Cdc25C phosphopeptide 1 it was 0.17 µM; with chimeric peptide 9 it was 0.032 µM.
